Assays:
IGROV-1 tumours = details: mouse, in vivo
[1] = SDS-PAGE of labelled antibody before and after mild hyperthermia incubation; format: physicochemical; details: 7 min at 42 °C
Experimental: Antibody fractions were identified by absorbance at 280 nm. XenoLight CF 750 NHS (0.5 μmole; ‘XL750’) previously dissolved in anhydrous DMSO (50 μL) was then slowly added with vigorous vortexing. Then mixture was then left stirring at r.t. for 1 h before re-separating on the PD-10, run in DPBS alone. Conjugation appeared to be almost complete (>90%) with little dye retained on the column. The resulting deep blue solution was split into 200 μL portions for storage at −20° C. Estimated final concentration was 5 mg/mL antibody, 0.24 nmol/mL XL750. Absorbance bands for a diluted sample were 280 nm (0.67 AU; protein) and 750 nm (>2 AU; NIRF dye), fluorescence peaked at 785 nm on excitation at 750 nm. Samples of the labelled antibody were analysed by SDS-PAGE using 4-20% tris-glycine non-reducing gels and highlighting protein bands with silver stain (SilverQuest, Sigma Aldrich).

[2] = test system: IGROV-1, SKOV-3 and BT474 cell line tumours; details: mouse, in vivo

trastuzumab: monoclonal antibody that binds to HER2/neu receptors
time of maximum accumulation in tumours (IGROV-1 tumours): 24 to 48 h

XL750-trastuzumab: Trastuzumab conjugated with XenoLight CF 750 NHS NIRF dye
SDS-PAGE differences before and after incubation [1]: No significant differences | NIRF signal of excised heated tumours vs left-hand controls (IGROV-1 tumours): substantially more NIRF signal | concentration in the excised tumour (IGROV-1 tumours): smaller increase | intensity of the NIRF signal maintained in tumours (IGROV-1 tumours): at least 7 days | uptake in left vs right tumours (IGROV-1 tumours): the same in both tumours | duration of difference in labelled antibody uptake (IGROV-1 tumours; 8 mg/kg): more than a week | effect of Her-2 expression level on biodistribution in tumours [2]: appeared not to affect the biodistribution

Reference: patent publication US11786468B2, “Nanoparticles” (KING'S COLLEGE LONDON, priority 2015, dated 2023)
